The source of these data is PubChem BioAssay AID624 (Vanderbilt High Throughput Screening Facility, 2007).

Chains of the proteins cited; added tags and fusions are not shown.
UniProt P18825, whole entry: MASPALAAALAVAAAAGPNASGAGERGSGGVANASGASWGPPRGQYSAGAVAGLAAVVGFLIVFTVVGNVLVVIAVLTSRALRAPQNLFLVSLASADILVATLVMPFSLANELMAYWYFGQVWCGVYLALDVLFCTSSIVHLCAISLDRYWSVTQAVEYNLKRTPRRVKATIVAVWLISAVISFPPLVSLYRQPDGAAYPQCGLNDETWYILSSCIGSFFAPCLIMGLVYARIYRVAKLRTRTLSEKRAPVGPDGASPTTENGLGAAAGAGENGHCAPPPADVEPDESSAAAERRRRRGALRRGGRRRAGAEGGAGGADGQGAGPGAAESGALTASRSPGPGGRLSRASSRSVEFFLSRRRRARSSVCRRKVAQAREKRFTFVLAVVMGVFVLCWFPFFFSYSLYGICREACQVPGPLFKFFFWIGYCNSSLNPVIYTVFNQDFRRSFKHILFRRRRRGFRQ

The list shows a part of the results, in another mix than the full data. The source made the active and inactive calls.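 Rule for the calls: active = fluorescence slope after compound addition differing from the mean of all screened samples at 99.7% confidence, in either direction; inactive = the rest.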

The target in this assay is Alpha-2C adrenergic receptor (Homo sapiens) (UniProt P18825). As to the kind of experiment: modulators of alpha2C/GIRK thallium flux, primary screen, cell-based, HEK293 alpha2C/GIRK1/2 (AID 624).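 Note: slope of fluorescence ratio to pre-addition baseline per second over 15 to 24 s.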 The settings on record: thallium flux BTC fluorescence, at 10 µM, actives lie on both sides.
Turning to `Fc1ccccc1NC1CCN(Cc2ccccc2)CC1`, the slope was inactive: 0.0055.
